Here are results for eleven molecules from patent US8778951B2, “Heteroaryl compounds and their uses” (Novartis AG, priority 2009, dated 2014).

Sequences of proteins named here, by UniProt entry; tags and fusion partners are left off.
UniProt P50750, whole entry: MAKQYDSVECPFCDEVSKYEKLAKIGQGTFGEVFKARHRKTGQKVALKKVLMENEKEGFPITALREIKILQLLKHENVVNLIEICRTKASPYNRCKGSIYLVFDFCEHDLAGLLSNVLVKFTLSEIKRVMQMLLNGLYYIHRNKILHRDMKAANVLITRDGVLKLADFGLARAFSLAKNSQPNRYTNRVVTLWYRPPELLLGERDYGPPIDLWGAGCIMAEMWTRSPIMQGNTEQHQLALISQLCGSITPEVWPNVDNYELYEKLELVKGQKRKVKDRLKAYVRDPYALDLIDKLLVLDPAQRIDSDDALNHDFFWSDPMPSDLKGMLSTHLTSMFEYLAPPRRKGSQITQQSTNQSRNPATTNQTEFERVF

Molecules are shown by their SMILES.

In this assay the target is Cdk9/cyclinT1 (Homo sapiens (Human), UniProt P50750). The experiment in a line: Cdk9/CyclinT1 IMAP Protocol (fluorescence polarization kinase assay). It is filed as biochemical. To be noted: Table 2; generated using one of the two Cdk9/cyclinT1 assays (IMAP or Alpha Screen), not specified which; unit inferred. The procedure:
Cdk9/CyclinT1 IMAP Protocol
The biological activity of the compounds of the invention can be determined using the assay described below.
Cdk9/cyclinT1 is purchased from Millipore, cat #14-685. The final total protein concentration in the assay 4 nM. […] The final concentration of peptide substrate is 100 nM. The ATP substrate (Adenosine-5′-triphosphate) is purchased from Roche Diagnostics, cat#1140965. The final concentration of ATP substrate is 6 uM. IMAP (Immobilized Metal Assay for Phosphochemicals) Progressive Binding reagent is purchased from Molecular Devices, cat#R8139. Fluorescence polarization (FP) is used for detection. The 5TAMRA-cdk7tide peptide is phosphorylated by Cdk9/cyclinT1 kinase using the ATP substrate. The Phospho-5TAMRA-cdk7tide peptide substrate is bound to the IMAP Progressive Binding Reagent. The binding of the IMAP Progressive Binding Reagent changes the fluorescence polarization of the 5TAMRA-cdk7tide peptide which is measured at an excitation of 531 nm and FP emission of 595 nm. Assays are carried out in 100 mM Tris, pH=7.2, mM MgCl2, 0.05% NaN3, 0.01% Tween-20, 1 mM dithiothreitol and 2.5% dimethyl sulfoxide. IMAP Progressive Binding Reagent is diluted 1:800 in 100% 1× Solution A from Molecular Devices, cat#R7285.
General protocol is as follows: To 10 ul of cdk9/cyclinT1, 0.5 ul of test compound in dimethyl sulfoxide is added. 5TAMRA-cdk7tide and ATP are mixed. 10 ul of the 5TAMRA-cdk7tide/ATP mix is added to start the reaction. The reaction is allowed to proceed for 4.5 hrs. 60 uL of IMAP Progressive Binding Reagent is added. After >1 hr of incubation, plates are read on the Envision 2101 from Perkin-Elmer. The assay is run in a 384-well format using black Corning plates, cat#3573.
With `COC[C@@H](C)N[C@H]1CC[C@H](Nc2cc(-c3cccc(NCC4COCC(C)(C)O4)n3)c(Cl)cn2)CC1` (stereo partly drawn) [Compound 316, 5′-chloro-N6-((6,6-dimethyl-1,4-dioxan-2-yl)methyl)-N2′-(trans-4-((R)-1-methoxypropan-2-yl-amino)cyclohexyl)-2,4′-bipyridine-2′,6-diamine], it took 9 nM to reach half-maximal inhibition (IC50). In other words, the single-digit nanomolar range.

`COC[C@@H](C)N[C@H]1CC[C@H](Nc2cc(-c3cccc(NC[C@H]4CCOC(C)(C)C4)n3)c(Cl)cn2)CC1` [Compound 328] came in with an IC50 of 1 nM. In turn, `COC[C@@H](C)N[C@H]1CC[C@H](Nc2cc(-c3cccc(NCC4CCOC(C)(C)C4)n3)c(Cl)cn2)CC1` (some centres unmarked) [Compound 329] yielded an IC50 of 1 nM. Take `COC[C@@H](C)N[C@H]1CC[C@H](Nc2cc(-c3cccc(NC[C@@H]4CCOC(C)(C)C4)n3)c(Cl)cn2)CC1` [Compound 330]: the IC50 is 2 nM. This IC50 lies about 2-fold higher than the previous one. In the case of `CC1(CNc2nc(-c3cc(N[C@H]4CC[C@H](NC5CCS(=O)(=O)C5)CC4)ncc3Cl)ccc2F)CCOCC1` (stereo partly drawn) [Compound 332, 5′-chloro-5-fluoro-N6-((4-methyltetrahydro-2H-pyran-4-yl)methyl)-N2′-(trans-4-((1,1-dioxo-hexahydro-1-thiopyran-4-yl)-3-ylamino)cyclohexyl)-2,4′-bipyridine-2′,6-diamine], the IC50 came out at 1 nM. As to `CCCN[C@H]1CC[C@H](Nc2cc(-c3ccc(F)c(NCC4(C#N)CCOCC4)n3)c(Cl)cn2)CC1` [Compound 342], inhibition was half-maximal at 0.17 nM (IC50). For `COCCN[C@H]1CC[C@H](Nc2cc(-c3cccc(NCC4(CO)CCOCC4)n3)c(Cl)cn2)CC1` [Compound 350], 1 nM corresponded to half-maximal inhibition (IC50). Then `N#CC1(CNc2nc(-c3cc(N[C@H]4CC[C@H](O)CC4)ncc3Cl)ccc2F)CCOCC1` [Compound 357, 4-((5′-chloro-5-fluoro-2′-((1r,4r)-4-hydroxycyclohexylamino)-2,4′-bipyridin-6-ylamino)methyl)tetrahydro-2H-pyran-4-carbonitrile], with 0.16 nM.

As to `N#CC1(CNc2cccc(-c3cc(N[C@H]4CC[C@H](NCCOC(F)(F)F)CC4)ncc3Cl)n2)CCOCC1` [Compound 362, 4-((5′-chloro-2′-((1r,4r)-4-(2-(trifluoromethoxy)ethylamino)cyclohexylamino)-2,4′-bipyridin-6-ylamino)methyl)tetrahydro-2H-pyran-4-carbonitrile], the IC50 came to 0.36 nM.

Consider `N#CC1(CNc2cccc(-c3cc(N[C@H]4CC[C@H](NC5CCOCC5)CC4)ncc3Cl)n2)CCOCC1` [Compound 363, 4-((5′-chloro-2′-((1r,4r)-4-(tetrahydro-2H-pyran-4-ylamino)cyclohexylamino)-2,4′-bipyridin-6-ylamino)methyl)tetrahydro-2H-pyran-4-carbonitrile], for which the half-maximal inhibitory concentration (IC50) turned out to be 0.43 nM.

As for `COCCN[C@H]1CC[C@H](Nc2cc(-c3cccc(NCC4(F)CCOCC4)n3)c(Cl)cn2)CC1` [Compound 364, 5′-chloro-N6-((4-fluorotetrahydro-2H-pyran-4-yl)methyl)-N2′-((1r,4r)-4-(2-methoxyethylamino)cyclohexyl)-2,4′-bipyridine-2′,6-diamine], the IC50 amounted to 0.63 nM.
